Data on 42 compounds can be found in patent US7786328B2, “Cyclohexyl-1,4-diamine compounds” (dated 2010).

By UniProt entry, the sequences of proteins in these tests, tags left out. Where a name states a change or a piece, a line headed by the entry shows the natural chain unless it says otherwise.
UniProt P35372, whole entry, looked up: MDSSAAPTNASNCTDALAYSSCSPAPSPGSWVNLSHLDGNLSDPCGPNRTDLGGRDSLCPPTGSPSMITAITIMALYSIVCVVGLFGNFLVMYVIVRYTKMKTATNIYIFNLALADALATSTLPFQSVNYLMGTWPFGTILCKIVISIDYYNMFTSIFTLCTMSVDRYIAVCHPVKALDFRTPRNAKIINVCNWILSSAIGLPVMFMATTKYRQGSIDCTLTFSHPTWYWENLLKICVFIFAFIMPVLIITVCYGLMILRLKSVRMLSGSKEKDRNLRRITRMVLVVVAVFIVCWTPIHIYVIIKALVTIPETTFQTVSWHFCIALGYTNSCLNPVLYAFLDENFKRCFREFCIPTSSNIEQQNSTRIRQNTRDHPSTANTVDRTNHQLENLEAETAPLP
UniProt P41146: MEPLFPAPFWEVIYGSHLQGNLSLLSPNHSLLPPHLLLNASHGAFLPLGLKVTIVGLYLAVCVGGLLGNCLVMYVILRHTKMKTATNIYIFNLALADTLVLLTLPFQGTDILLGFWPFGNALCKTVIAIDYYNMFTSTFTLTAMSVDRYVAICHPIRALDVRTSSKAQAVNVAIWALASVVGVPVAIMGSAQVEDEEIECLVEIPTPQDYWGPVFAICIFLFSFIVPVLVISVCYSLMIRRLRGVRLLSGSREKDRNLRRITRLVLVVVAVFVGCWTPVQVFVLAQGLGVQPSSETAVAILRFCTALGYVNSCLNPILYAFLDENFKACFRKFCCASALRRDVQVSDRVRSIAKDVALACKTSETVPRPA
UniProt P31652: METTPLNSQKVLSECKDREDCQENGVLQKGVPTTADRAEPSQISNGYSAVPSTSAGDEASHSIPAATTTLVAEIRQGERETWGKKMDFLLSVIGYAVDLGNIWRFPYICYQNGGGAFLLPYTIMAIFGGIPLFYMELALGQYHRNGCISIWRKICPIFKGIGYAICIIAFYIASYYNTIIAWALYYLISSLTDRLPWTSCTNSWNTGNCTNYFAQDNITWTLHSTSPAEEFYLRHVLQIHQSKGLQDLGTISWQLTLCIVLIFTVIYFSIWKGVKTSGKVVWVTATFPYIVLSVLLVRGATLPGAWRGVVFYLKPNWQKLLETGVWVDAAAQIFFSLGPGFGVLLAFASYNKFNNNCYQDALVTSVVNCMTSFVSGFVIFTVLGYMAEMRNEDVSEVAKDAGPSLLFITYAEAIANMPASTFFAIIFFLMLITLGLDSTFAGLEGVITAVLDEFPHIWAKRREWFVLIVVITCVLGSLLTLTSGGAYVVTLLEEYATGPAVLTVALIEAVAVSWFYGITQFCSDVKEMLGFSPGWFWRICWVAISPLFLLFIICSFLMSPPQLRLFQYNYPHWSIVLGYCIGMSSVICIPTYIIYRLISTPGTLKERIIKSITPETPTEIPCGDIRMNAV
UniProt Q9WTR4: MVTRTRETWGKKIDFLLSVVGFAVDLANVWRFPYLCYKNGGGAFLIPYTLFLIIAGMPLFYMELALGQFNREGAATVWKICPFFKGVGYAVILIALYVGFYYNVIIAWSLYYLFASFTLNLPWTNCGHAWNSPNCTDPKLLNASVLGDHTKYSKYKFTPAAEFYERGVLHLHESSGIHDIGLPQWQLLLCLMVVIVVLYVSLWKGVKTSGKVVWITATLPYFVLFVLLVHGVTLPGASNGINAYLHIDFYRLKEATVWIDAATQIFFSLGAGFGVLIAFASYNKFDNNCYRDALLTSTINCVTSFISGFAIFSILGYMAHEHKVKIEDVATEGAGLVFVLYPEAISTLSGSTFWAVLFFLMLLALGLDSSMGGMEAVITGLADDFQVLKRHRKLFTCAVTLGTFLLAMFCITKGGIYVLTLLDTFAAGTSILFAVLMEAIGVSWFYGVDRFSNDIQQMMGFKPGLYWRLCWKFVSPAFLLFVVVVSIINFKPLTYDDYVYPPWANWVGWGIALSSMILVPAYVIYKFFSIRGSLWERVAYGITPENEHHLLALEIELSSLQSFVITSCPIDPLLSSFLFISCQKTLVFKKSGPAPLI

Test [1] addresses human μ-opiate receptor (Homo sapiens, UniProt P35372). Put plainly: Measurement of the μ binding ([3H]-naloxone displacement, CHO-K1 membrane preparation). As to conditions: test substance 1 μM; inhibition of specific binding of 1 nmol/l [3H]-naloxone.
Test [2] has as its target ORL1 receptor (Homo sapiens, UniProt P41146). Put plainly: Measurement of the ORL1 binding (3H-nociceptin/orphanin FQ, membranes from recombinant CHO-ORL1 cells). The settings on record: c=1 μM; 0.5 nM 3H-nociceptin/orphanin FQ.
In test [3] the target is 5HT uptake (Rattus norvegicus, UniProt P31652). Description: Measurement of the serotonin reuptake (synaptosomes from medulla+pons of male rat brains). As to conditions: rat brain synaptosomes (medulla+pons).
The target in test [4] is NA uptake (Rattus norvegicus, UniProt Q9WTR4). Description: Measurement of the noradrenaline reuptake (synaptosomes from hypothalamus of male rat brains). The settings on record: rat brain synaptosomes (hypothalamus).

In the case of `CN(C)C1(Cc2cccc(F)c2)CCC(NC(=O)c2ccccc2COC(=O)c2ccccc2)CC1` (stereo not shown), the “μ-Opiate receptor [1 μM], % inhibition” value in test [1] is given as 98%. Besides, in test [2], the “ORL1 [1 μM], % inhibition” value amounted to 60%. For `COC(=O)CCCC(=O)NC1CCC(c2cccc(F)c2)(N(C)C)CC1` (stereo not shown), in that order: 93% and 91%. Take “N-(4-Dimethylamino-4-phenylcyclohexyl)-4-phenoxybutyramide hydrochloride, Less Polar Diastereoisomer”: in test [1], the “μ-Opiate receptor [1 μM], % inhibition” value is recorded as 100%. In addition, the “ORL1 [1 μM], % inhibition” value in test [2] turned out to be 99%. The “5HT uptake [10 μM], % inhibition” value in test [3] is given as 98%. For the same compound, in test [4], the “NA uptake [10 μM], % inhibition” value was 77%. Turning to `CN(C)C1(Cc2ccc(F)cc2)CCC(NC(=O)CCCOc2ccccc2)CC1` (stereo not shown), in test [1], the “μ-Opiate receptor [1 μM], % inhibition” value came to 68%. In addition, the “ORL1 [1 μM], % inhibition” value in test [2] is reported as 52%. For the compound “2-(3-Chlorophenoxy)-N-(4-dimethylamino-4-phenylcyclohexyl)acetamide hydrochloride, More Polar Diastereoisomer”, the “μ-Opiate receptor [1 μM], % inhibition” value in test [1] came out at 68%. Besides, in test [2], the “ORL1 [1 μM], % inhibition” value was determined as 46%. Besides, the “NA uptake [10 μM], % inhibition” value in test [4] was 40%.

As for `CN(C)C1(c2cccc(F)c2)CCC(NC(=O)c2ccccc2COC(=O)c2ccccc2)CC1` (stereo not shown), in test [1], the “μ-Opiate receptor [1 μM], % inhibition” value was 98%. For the same compound, the “ORL1 [1 μM], % inhibition” value in test [2] worked out at 88%. As to “N-(4-Dimethylamino-4-phenylcyclohexyl)-4-phenoxybutyramide hydrochloride, More Polar Diastereoisomer”, the “μ-Opiate receptor [1 μM], % inhibition” value in test [1] is 71%. The “ORL1 [1 μM], % inhibition” value in test [2] is 39%. Moreover, the “5HT uptake [10 μM], % inhibition” value in test [3] came out at 78%. Also, in test [4], the “NA uptake [10 μM], % inhibition” value is on record as 56%. `Cc1ccc(C)c(OC(CCC(C)(C)C(=O)NC2CCC(c3cccc(F)c3)(N(C)C)CC2)CC(=O)O)c1` (stereo not shown): in test [1], the “μ-Opiate receptor [1 μM], % inhibition” value worked out at 91%. The “ORL1 [1 μM], % inhibition” value in test [2] came out at 63%. Taken in the same sequence, the figures for `COCC(=O)NC1CCC(c2cccc(F)c2)(N(C)C)CC1` (stereo not shown) were 73% and 43%. For `COCCOCC(=O)NC1CCC(c2ccccc2)(N(C)C)CC1` (stereo not shown), in that order: 91% and 70%.

Turning to `COCCOCC(=O)NC1CCC(c2cccs2)(N(C)C)CC1` (stereo not shown), the “μ-Opiate receptor [1 μM], % inhibition” value in test [1] was 101%. Further, in test [2], the “ORL1 [1 μM], % inhibition” value is recorded as 64%. Taken in the same sequence, the figures for `CN(C)C1(c2cccc(F)c2)CCC(NC(=O)c2ccccc2Oc2ccccc2)CC1` (stereo not shown) were 98% and 84%. As for `CN(C)C1(c2ccccc2)CCC(NC(=O)COc2cccc(Cl)c2)CC1` (stereo not shown), in test [1], the “μ-Opiate receptor [1 μM], % inhibition” value is recorded as 97%. Besides, in test [2], the “ORL1 [1 μM], % inhibition” value turned out to be 97%. On to `CN(C)C1(c2ccccc2)CCC(NC(=O)c2ccccc2COC(=O)c2ccccc2)CC1` (stereo not shown), for which, in test [1], the “μ-Opiate receptor [1 μM], % inhibition” value is on record as 97%. Further, the “ORL1 [1 μM], % inhibition” value in test [2] was determined as 82%. Taken in the same sequence, the figures for `CC(=O)OCC(=O)NC1CCC(c2cccs2)(N(C)C)CC1` (stereo not shown) were 77% and 50%.

For the compound `CC(=O)OC(C(=O)NC1CCC(c2cccc(F)c2)(N(C)C)CC1)c1ccccc1` (stereo not shown), in test [1], the “μ-Opiate receptor [1 μM], % inhibition” value is 99%. Also, the “ORL1 [1 μM], % inhibition” value in test [2] came out at 93%. With “2-(3-Chlorophenoxy)-N-(4-dimethylamino-4-phenylcyclohexyl)acetamide hydrochloride, Less Polar Diastereoisomer”, the “μ-Opiate receptor [1 μM], % inhibition” value in test [1] was 100%. In addition, the “ORL1 [1 μM], % inhibition” value in test [2] amounted to 99%. Moreover, the “5HT uptake [10 μM], % inhibition” value in test [3] is reported as 97%. Besides, in test [4], the “NA uptake [10 μM], % inhibition” value turned out to be 87%. Turning to `CN(C)C1(c2cccs2)CCC(NC(=O)CSCc2ccccc2)CC1` (stereo not shown), the “μ-Opiate receptor [1 μM], % inhibition” value in test [1] stood at 95%. For the same compound, the “ORL1 [1 μM], % inhibition” value in test [2] worked out at 96%. Taken in the same sequence, the figures for `CC(=O)OCC(=O)NC1CCC(c2cccc(F)c2)(N(C)C)CC1` (stereo not shown) were 81% and 56%. For `CC(=O)OC(C(=O)NC1CCC(c2cccs2)(N(C)C)CC1)c1ccccc1` (stereo not shown), the “μ-Opiate receptor [1 μM], % inhibition” value in test [1] is 100%. The “ORL1 [1 μM], % inhibition” value in test [2] worked out at 78%. Turning to `CN(C)C1(Cc2ccc(F)cc2)CCC(NC(=O)COc2ccccc2)CC1` (stereo not shown), in test [1], the “μ-Opiate receptor [1 μM], % inhibition” value is reported as 51%. Same read-out and setting: the same measure for `Cc1cccc(CC2(N(C)C)CCC(NC(=O)COc3ccccc3)CC2)c1` (stereo not shown): 93%. For the compound `Cc1cccc(CC2(N(C)C)CCC(NC(=O)COc3cccc(Cl)c3)CC2)c1` (stereo not shown), the “μ-Opiate receptor [1 μM], % inhibition” value in test [1] is on record as 80%.

With `Cc1ccccc1CC1(N(C)C)CCC(NC(=O)C(C)(C)Oc2ccccc2Cl)CC1` (stereo not shown), the “μ-Opiate receptor [1 μM], % inhibition” value in test [1] is 82%. Regarding `CCC(Oc1ccccc1)C(=O)NC1CCC(Cc2ccccc2C)(N(C)C)CC1` (stereo not shown), the “μ-Opiate receptor [1 μM], % inhibition” value in test [1] is given as 69%. For `CN(C)C1(c2ccccc2)CCC(NC(=O)CCCOc2ccccc2)CC1` (stereo not shown), the “μ-Opiate receptor [1 μM], % inhibition” value in test [1] was found to be 95%. For the same compound, in test [2], the “ORL1 [1 μM], % inhibition” value is 99%. Take `Cc1cccc(CC2(N(C)C)CCC(NC(=O)CSCc3ccccc3)CC2)c1` (stereo not shown): the “μ-Opiate receptor [1 μM], % inhibition” value in test [1] is 71%. The same measure, in the same setting: the value for `O=C(COc1ccccc1)NC1CCC(Cc2ccccc2)(N2CCCCCC2)CC1` (stereo not shown) was 41%. On the same count and under the same terms, the value for `CC(C)=NOC(C)C(=O)NC1CCC(Cc2ccccc2F)(N(C)C)CC1` (stereo not shown) was 41%; that for `Cc1cccc(CC2(N(C)C)CCC(NC(=O)CSc3ccc(C(F)(F)F)cn3)CC2)c1` (stereo not shown) was 55%. Turning to `CN(C)C1(CCc2ccccc2)CCC(NC(=O)C(C)(C)Oc2ccc(CCNC(=O)c3ccc(Cl)cc3)cc2)CC1` (stereo not shown), in test [1], the “μ-Opiate receptor [1 μM], % inhibition” value is recorded as 41%. On to `Cc1ccccc1CC1(N(C)C)CCC(NC(=O)CCCOc2ccccc2)CC1` (stereo not shown), for which, in test [1], the “μ-Opiate receptor [1 μM], % inhibition” value is given as 77%. The same measure, in the same setting: the same measure for `O=C(OCc1ccccc1C(=O)NC1CCC(Cc2ccccc2)(N2CCCC2)CC1)c1ccccc1` (stereo not shown): 94%; for `O=C(COc1ccc(Cl)cc1)NC1CCC(Cc2ccccc2)(N2CCCCC2)CC1` (stereo not shown): 50%.

Regarding `CC(Oc1ccccc1)C(=O)NC1CCC(Cc2ccccc2Cl)(N(C)C)CC1` (stereo not shown), the “μ-Opiate receptor [1 μM], % inhibition” value in test [1] amounted to 82%. With `CN(C)C1(c2cccs2)CCC(NC(=O)COc2ccccc2)CC1` (stereo not shown), the “μ-Opiate receptor [1 μM], % inhibition” value in test [1] was determined as 94%. The “ORL1 [1 μM], % inhibition” value in test [2] was 93%. For the compound `Cc1cccc(CC2(N(C)C)CCC(NC(=O)c3ccccc3COC(=O)c3ccccc3)CC2)c1` (stereo not shown), the “μ-Opiate receptor [1 μM], % inhibition” value in test [1] came to 106%. For the same compound, in test [2], the “ORL1 [1 μM], % inhibition” value is 44%. Take `Cc1ccccc1CC1(N(C)C)CCC(NC(=O)COc2ccccc2)CC1` (stereo not shown): the “μ-Opiate receptor [1 μM], % inhibition” value in test [1] is given as 85%. With `COCCOCC(=O)NC1CCC(Cc2ccccc2)(N(C)C)CC1` (stereo not shown), the “μ-Opiate receptor [1 μM], % inhibition” value in test [1] is listed as 47%. `CC(Oc1ccccc1)C(=O)NC1CCC(Cc2ccccc2)(N(C)C)CC1` (stereo not shown): the “μ-Opiate receptor [1 μM], % inhibition” value in test [1] came to 61%.

As to `CN(C)C1(Cc2ccccc2)CCC(NC(=O)c2ccccc2COC(=O)c2ccccc2)CC1` (stereo not shown), the “μ-Opiate receptor [1 μM], % inhibition” value in test [1] came to 97%. Moreover, in test [2], the “ORL1 [1 μM], % inhibition” value worked out at 62%.

As for `Cc1ccccc1CC1(N(C)C)CCC(NC(=O)C(C)(C)Oc2ccc(C(N)=O)cc2)CC1` (stereo not shown), in test [1], the “μ-Opiate receptor [1 μM], % inhibition” value is 67%.
